Source: US20230057987A1 (published 2023)

T1: NYESO1-001, irrelevant control peptide peptide on HLA-A*02:01 (human)
T1 peptide: SLLMWITQV


Molecular target: T1, NYESO1-001, irrelevant control peptide …
Test: killing

Binder	binding result
TCR-1 (TCR, V domains shown) Valpha: QTVTQSQPEMSVQEAETVTLSCTYDTSENNYYLFWYKQPPSRQMILVIRQEAYKQQNATENRFSVNFQKAAKSFSLKISDSQLGDTAMYFCAPLGLVAGSARQLTFGSGTQLTVLP Vbeta: GVSQDPRHKITKRGQNVTFRCDPISEHNRLYWYRQTLGQGPEFLTYFQNEAQLEKSRLLSDRFSAERPKGSFSTLEIQRTEQGDSAMYLCASSTDITSYEQYFGPGTRLTVT	no recognition
TCR-2 (TCR, V domains shown) Valpha: QKITQTQPGMFVQEKEAVTLDCTYDTSDQSYGLFWYKQPSSGEMIFLIYQGSYDEQNATEGRYSLNFQKARKSANLVISASQLGDSAMYFCAMREGSDAGGTSYGKLTFGQGTILTVHP Vbeta: GVIQSPRHLIKEKRETATLKCYPIPRHDTVYWYQQGPGQDPQFLISFYEKMQSDKGSIPDRFSAQQFSDYHSELNMSSLELGDSALYFCASSPSTGRLNTEAFFGQGTRLTVV	no recognition
TCR-3 (TCR, V domains shown) Valpha: QKITQTQPGMFVQEKEAVTLDCTYDTSDQSYGLFWYKQPSSGEMIFLIYQGSYDEQNATEGRYSLNFQKARKSANLVISASQLGDSAMYFCGYSNYQLIWGAGTKLIIKP Vbeta: QVTQNPRYLITVTGKKLTVTCSQNMNHEYMSWYRQDPGLGLRQIYYSMNVEVTDKGDVPEGYKVSRKEKRNFPLILESPSPNQTSLYFCASREGTGGYQPQHFGDGTRLSIL	no recognition
TCR-4 (TCR, V domains shown) Valpha: QSVAQPEDQVNVAEGNPLTVKCTYSVSGNPYLFWYVQYPNRGLQFLLKYITGDNLVKGSYGFEAEFNKSQTSFHLKKPSALVSDSALYFCAAPRDDKIIFGKGTRLHILP Vbeta: GVTQTPKFRVLKTGQSMTLLCAQDMNHEYMYWYRQDPGMGLRLIHYSVGEGTTAKGEVPDGYNVSRLKKQNFLLGLESAAPSQTSVYFCASSYLRTGGNEQFFGPGTRLTVL	no recognition
TCR-5 (TCR, V domains shown) Valpha: QQLNQSPQSMFIQEGEDVSMNCTSSSIFNTWLWYKQDPGEGPVLLIALYKAGELTSNGRLTAQFGITRKDSFLNISASIPSDVGIYFCAGGYNYGQNFVFGPGTRLSVLP Vbeta: GVTQTPKHLITATGQRVTLRCSPRSGDLSVYWYQQSLDQGLQFLIQYYNGEERAKGNILERFSAQQFPDLHSELNLSSLELGDSALYFCASSAGLAGGYEQYFGPGTRLTVT	no recognition
TCR-6 (TCR, V domains shown) Valpha: QKEVEQDPGPLSVPEGAIVSLNCTYSNSAFQYFMWYRQYSRKGPELLMYTYSSGNKEDGRFTAQVDKSSKYISLFIRDSQPSDSATYLCAMSGNSGARDYGNNRLAFGKGNQVVVIP Vbeta: EVTQTPKHLVMGMTNKKSLKCEQHMGHRAMYWYKQKAKKPPELMFVYSYEKLSINESVPSRFSPECPNSSLLNLHLHALQPEDSALYLCASATWEEAGPYNEQFFGPGTRLTVL	no recognition
TCR-7 (TCR, V domains shown) Valpha: QTVTQSQPEMSVQEAETVTLSCTYDTSESDYYLFWYKQPPSRQMILVIRQEAYKQQNATENRFSVNFQKAAKSFSLKISDSQLGDAAMYFCTFRYGGATNKLIFGTGTLLAVQP Vbeta: GVIQSPRHLIKEKRETATLKCYPIPRHDTVYWYQQGPGQDPQFLISFYEKMQSDKGSIPDRFSAQQFSDYHSELNMSSLELGDSALYFCASRGGWAETPDTQYFGPGTRLTVL	no recognition
TCR-8 (TCR, V domains shown) Valpha: QKVTQAQTEISVVEKEDVTLDCVYETRDTTYYLFWYKQPPSGELVFLIRRNSFDEQNEISGRYSWNFQKSTSSFNFTITASQVVDSAVYFCALSGRGSGTYKYIFGTGTRLKVLA Vbeta: GVIQSPRHLIKEKRETATLKCYPIPRHDTVYWYQQGPGQDPQFLISFYEKMQSDKGSIPDRFSAQQFSDYHSELNMSSLELGDSALYFCASSAGTSYNEQFFGPGTRLTVL	no recognition
TCR-9 (TCR, V domains shown) Valpha: EDVEQSLFLSVREGDSSVINCTYTDSSSTYLYWYKQEPGAGLQLLTYIFSNMDMKQDQRLTVLLNKKDKHLSLRIADTQTGDSAIYFCAEKETAGNKLTFGGGTRVLVKP Vbeta: EPEVTQTPSHQVTQMGQEVILRCVPISNHLYFYWYRQILGQKVEFLVSFYNNEISEKSEIFDDQFSVERPDGSNFTLKIRSTKLEDSAMYFCASTVQSPRTNEQFFGPGTRLTVL	no recognition
TCR-10 (TCR, V domains shown) Valpha: QNIDQPTEMTATEGAIVQINCTYQTSGFNGLFWYQQHAGEAPTFLSYNVLDGLEEKGRFSSFLSRSKGYSYLLLKELQMKDSASYLCAVPAPYTGTASKLTFGTGTRLQVTL Vbeta: GVTQTPKFQVLKTGQSMTLQCAQDMNHNSMYWYRQDPGMGLRLIYYSASEGTTDKGEVPNGYNVSRLNKREFSLRLESAAPSQTSVYFCASSEGYSTYNEQFFGPGTRLTVL	no recognition
TCR-11 (TCR, V domains shown) Valpha: IQVEQSPPDLILQEGANSTLRCNFSDSVNNLQWFHQNPWGQLINLFYIPSGTKQNGRLSATTVATERYSLLYISSSQTTDSGVYFCAVNTGTASKLTFGTGTRLQVTL Vbeta: GVTQTPKFQVLKTGQSMTLQCAQDMNHNSMYWYRQDPGMGLRLIYYSASEGTTDKGEVPNGYNVSRLNKREFSLRLESAAPSQTSVYFCASSPRGQGRSYEQYFGPGTRLTVT	no recognition
TCR-12 (TCR, V domains shown) Valpha: QLLEQSPQFLSIQEGENLTVYCNSSSVFSSLQWYRQEPGEGPVLLVTVVTGGEVKKLKRLTFQFGDARKDSSLHITAAQPGDTGLYLCAGGLSDSYDKVIFGPGTSLSVIP Vbeta: EVTQTPKHLVMGMTNKKSLKCEQHMGHRAMYWYKQKAKKPPELMFVYSYEKLSINESVPSRFSPECPNSSLLNLHLHALQPEDSALYLCASSQGVGQEYGYTFGSGTRLTVV	no recognition
TCR-13 (TCR, V domains shown) Valpha: QKITQTQPGMFVQEKEAVTLDCTYDTSDQSYGLFWYKQPSSGEMIFLIYQGSYDEQNATEGRYSLNFQKARKSANLVISASQLGDSAMYFCAMSDPIMDTGRRALTFGSGTRLQVQP Vbeta: GITQSPKYLFRKEGQNVTLSCEQNLNHDAMYWYRQDPGQGLRLIYYSQIVNDFQKGDIAEGYSVSREKKESFPLTVTSAQKNPTAFYLCASKSRGPNLADTQYFGPGTRLTVL	no recognition
TCR-14 (TCR, V domains shown) Valpha: QKITQTQPGMFVQEKEAVTLDCTYDTSDQSYGLFWYKQPSSGEMIFLIYQGSYDEQNATEGRYSLNFQKARKSANLVISASQLGDSAMYFCAINGLPGSARQLTFGSGTQLTVLP Vbeta: GVAQSPRYKIIEKRQSVAFWCNPISGHATLYWYQQILGQGPKLLIQFQNNGVVDDSQLPKDRFSAERLKGVDSTLKIQPAKLEDSAVYLCASSRFVATGTSPLHFGNGTRLTVT	no recognition
TCR-15 (TCR, V domains shown) Valpha: KQEVTQIPAALSVPEGENLVLNCSFTDSAIYNLQWFRQDPGKGLTSLLLIQSSQREQTSGRLNASLDKSSGRSTLYIAASQPGDSATYLCAVLLTGKLIFGQGTTLQVKP Vbeta: GVTQTPRYLIKTRGQQVTLSCSPISGHRSVSWYQQTPGQGLQFLFEYFSETQRNKGNFPGRFSGRQFSNSRSEMNVSTLELGDSALYLCASSGGPGPSGEQYFGPGTRLTVT	no recognition
